In patent US20150166664A1, “NOVEL THERAPEUTIC TREATMENTS WITH ANTI-HER2 ANTIBODIES HAVING A LOW FUCOSYLATION” (Glycotope GmbH, priority 2012, published 2015):

Columns and labels:
[1] = system: locally advanced or metastatic HER2-positive cancer; conditions: Example 3 patient history; one monotherapy and two combination therapies; cited from earlier work
[2] = system: BT474 human breast carcinoma xenograft; assay: BT474 xenograft antitumor activity; format: in vivo, nude mice; conditions: for BT474 tumor growth compared to PBS treated animals: 3 mg/kg and 30 mg/kg i.v. twice weekly for 4 weeks; for tumor remissions: BT474, i.v. twice weekly for 4 weeks, 3 mg/kg and 30 mg/kg
Method: A pharmacodynamic study in nude mice analysing the efficacy of Fuc− trastuzumab in different tumor models was performed and also compared to Fuc+ trastuzumab. Athymic nude mice xenografted with HER2 positive tumor cells from a human cell line BT474 or from patient derived carcinomas were used.
In the study 1×10^7 tumor cells were subcutaneously (s.c.) implanted into nude mice (N=8 per group) and allowed to grow until tumors reached palpable size, which was reached approximately 7-13 days post implantation. The target tumor size was ˜0.1 cm^3. At this time point antibody treatment was started. Tumor size was measured twice weekly with a calliper-like instrument. Individual tumor volumes were calculated (V=(length+width^2)/2) and related to the values at the first day of treatment (relative tumor volume). The therapeutic effect was determined in terms of primary tumor growth inhibition.
The application volume was 10 μl/g body weight for both antibody formulations. […] For the set of experiments a body weight based dosing was selected to enhance the dosing accuracy and comparability during the treatment period (Fichtner et al. 2008, Steiner et al. 2007). Mabthera® (Roche) served as an irrelevant antibody control and was administered only at a dose level of 30 mg/kg. Xenografted mice were treated at the indicated dosage level when tumors reached palpable size. Each symbol represents the mean value and SEM of a group of 8 animals.

[3] = system: BT474 cells; assay: Active caspase-3 apoptosis assay after cross-linking with protein G; format: cell-based, human; conditions: cross-linking by protein G 2 μg/ml
Text: As a marker for induction of apoptosis, we analyzed the activation of caspase-3 using the BD PE Active Caspase-3 Apoptosis Kit. Caspase-3, a cystein protease, is a key protease that is activated during the early stages of apoptosis. […] The processed form consists of two subunits (17 kDa and 12 kDa) which associate to form the active caspase. Active caspase-3 proteolytically cleaves and activates other caspases as well as targets in the cytoplasm and in the nucleus, thereby promoting apoptosis. Activation of caspases is generally considered as the “point of no return” in apoptotic pathways.
Briefly, tumor cell lines were cultured in medium containing 1% FCS for one day prior to the assay. Cells were seeded into 48 well plates incubated at 37° C. in a CO2 incubator over night. […] The plates were incubated for 4 to 48 h at 37° C. in a CO2 incubator.
Cells (both adherent and non-adherent cells) were harvested, permeabilized, fixed and stained for active caspase-3 according to manufacturer's protocol. Active caspase-3-positive (apoptotic) cells were analyzed by flow cytometry at a BD FACS Canto II flow cytometer using BD FACSDiva™ Software.

[4] = system: HER-2/NEU-over expressing metastatic breast cancer; conditions: cited from earlier work
[5] = system: MCF-7 cells; assay: ADCC europium release assay with human PBMC on MCF-7; format: cell-based; conditions: lower HER2 expressing tumors (MCF-7)
[6] = system: patient derived #7268 gastric carcinoma xenografts; conditions: 1 mg/kg and 10 mg/kg i.v. twice weekly for 4 weeks; p<0.001
[7] = system: HER2 positive cell lines; assay: Flow cytometry binding on HER2 positive cell lines; conditions: all tumor cell lines tested; 0.01 to 10 μg/ml; compared with Fuc+ trastuzumab (Herceptin®)
Method: Briefly, target cells were harvested and incubated with the trastuzumab variant at different concentrations. Cells were washed and incubated with a secondary Cy3-conjugated anti-human IgG antibody at 4° C. in the dark. Cells were washed and analyzed in a flow cytometer FACS Canto II (Becton Dickinson). Live cells were gated based on their scatter properties and the percentage of positive cells was calculated using the FACSDiva Software (Becton Dickinson). […] There were no differences in the percentage of positive cells over the whole analyzed concentration range of 0.01 to 10 μg/ml.

Fuc+ trastuzumab: high fucose anti-HER2 antibody trastuzumab produced in hamster CHO cells, substantially corresponds to trastuzumab (Herceptin®)
effect of pretreatment [1]: no effect | BT474 tumor growth compared to PBS treated animals ([2]; p<0.001): inhibit strongly | tumor remissions [2]: 7 of 8 | apoptosis induction (active caspase-3 positive cells) [3]: comparable | response rate ([4]; bone metastases): 10% | patients with progressive disease ([4]; heavily pre-treated patients): 65% | time to disease progression (median) ([4]; human, in vivo): 3.1 months | response ([4]; lung and liver metastases): no response | response rate ([4]; lymphnodes): 43% | response rate ([4]; skin metastasis): 50%

Fuc− trastuzumab: low fucosylation variant of trastuzumab expressed in a human myeloid leukemia cell line having a reduced fucosylation activity
Fuc− trastuzumab mediated ADCC increase, mean [5]: 42 fold and 43 fold | BT474 tumor growth compared to PBS treated animals ([2]; p<0.001): inhibit strongly | tumor remissions [2]: 8 of 8 | BT474 tumor growth compared to vehicle treated animals ([2]; second study, 0.1 mg/kg to 10 mg/kg i.v. twice weekly for 4 weeks, p<0.001): inhibited strongly and dose-dependently | tumor growth [6]: inhibited the tumor growth significantly | apoptosis induction (active caspase-3 positive cells) [3]: strong concentration-dependent apoptosis | binding characteristics (percentage of positive cells) [7]: comparable binding characteristics

Values joined by “and” are separate entries in the source; they are usually repeats but may differ in a detail not shown here. Equal values may be shown once. Read-outs that look alike come from different tables or passages of the source.
